Measurements: PubChem BioAssay AID1519 (National Center for Advancing Translational Sciences (NCATS), 2009)
This is a selection; strong and weak results do not stand in their true shares. Records with an inconclusive call do not appear. The source made the active and inactive calls. The call rests on the fitted dose curve.

experiment: qHTS Assay for Lipid Storage Modulators; settings: Drosophila S3 cells, BODIPY lipid droplet/cell ratio, laser cytometry, cells loaded with oleic acid; at 25.7 µM (top of the series)
On the % scale 0 is the no-effect control and ±100 the full control effect.

Row | SMILES | activity change, negative = inhibition
1 | NC(=O)Nc1ccc([As](=O)(O)O)cc1 | inactive: -2.62%
